Ab-14 light chain CDR variants: yeast mating affinities

Target peptide (SARS-CoV-2 spike, HR2 region): PDVDLGDISGINAS

Ab-14 is the parent antibody, in scFv form: VH, then three GGGGS repeats, then VL. The heavy chain is unchanged in all variants.
VH: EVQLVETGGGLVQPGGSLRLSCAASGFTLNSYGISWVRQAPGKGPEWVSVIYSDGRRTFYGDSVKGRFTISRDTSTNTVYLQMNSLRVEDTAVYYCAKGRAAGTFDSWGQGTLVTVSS
VL: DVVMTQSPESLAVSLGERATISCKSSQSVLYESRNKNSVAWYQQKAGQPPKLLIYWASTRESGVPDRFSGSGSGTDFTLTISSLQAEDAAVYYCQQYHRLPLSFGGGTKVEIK

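These sequences belong to a second round, designed from the earlier measurements on random variants of the parent. Group labels follow the data file (Ctrl: baseline library sampled from a position-specific scoring matrix, with some repeated check sequences; En: ensemble of fine-tuned language models; GP: Gaussian process model; HC: hill climbing; Gen: genetic algorithm; Gibbs: Gibbs sampling; a sequence that several methods proposed may carry one label only). AlphaSeq pools MATa yeast showing the antibodies with MATalpha yeast showing the peptide. Mating (16 h, 30 °C) was followed by selection of diploids and sequencing of their barcodes. A regression on co-assayed BCL2-family reference pairs converts the normalised counts of each replicate to an apparent Kd. The assay was run in six technical replicates.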

Variants are written as CDR1, CDR2 and CDR3 of the light chain (limits as in the source). Parent: KSSQSVLYESRNKNSVA, WASTRES, QQYHRLPLS. Kd is apparent (estimated from mating counts) and averaged on the log scale over replicates with a signal. Smaller is tighter. Where no diploid with the target was found in any replicate, the entry reads "not detected": below detection, most likely a poor binder, though not proof of it. The parent sequence was in this pool as ten entries: three were never detected, three once, and four in most replicates, with averages from 2.2 nM to 240 nM. In the paper, a design with two or fewer of six values counts as a poor binder. Nonspecific signal, from three strains lacking the peptide, appeared in 4% of pairings of all light chain designs, centred on 430 nM (5% of these signals below 38 nM); values are not corrected for it. A sequence measured in both rounds can read differently, since the two assays cover different ranges.

| Kd | seen in | CDR-L1 | CDR-L2 | CDR-L3 | group |
|---|---|---|---|---|---|
| 4.5 nM | 6 of 6 | MMSQVTGQGQRHRNNVA | QTSTREE | QQYDRLPLV | En_Gen |
| not detected | 0 of 6 | KSSYHKLTESRNKNSVA | WRSTRES | QQYHRLPLS | Ctrl |
| 9.9 nM | 4 of 6 | MISQLYNMGTFAINSVA | QATLRNE | QQYDRLPLI | En_Gen |
| 55 nM | 6 of 6 | KLESLMGESYFEKENIA | EGEQRFS | QQYHRLPLH | En_Gibbs |
| 12 nM | 6 of 6 | KLPNSQEYESRWKNSVA | NASTREL | QQYHRLPLS | GP_Gibbs |
| 360 nM | 6 of 6 | KLRQSVGYESRNKSRVA | DNSTRES | QQYDRLPLS | En_HC |
| 54 nM | 6 of 6 | TISGMTNQAMSKHNSVA | NVTMRPQ | QQYARLPLS | En_Gen |
| 5.0 nM | 6 of 6 | KITTSLYSWGSDKGAVA | EENITVR | QQYFRLPFS | En_Gibbs |
| 140 nM | 6 of 6 | KLQGFSQNYNDIWNSIA | DESMKHT | QHYDRLPLV | En_Gibbs |
| 1.4 nM | 6 of 6 | MVNQHDEGFKGVKDAIA | NAELREG | QQYGRLPLS | En_Gibbs |
| 820 nM | 2 of 6 | KDSQSVLLESRNKNSVA | WASTREE | QQYHYLPLS | Ctrl |
| 570 pM | 6 of 6 | KQSQSVLYESVNKNSVA | DASQRES | QQYHRLPLS | GP_HC |
| 9.7 nM | 6 of 6 | KVDQSEWCESRWKNSVA | SASTRIS | QQYHRLPLS | GP_Gibbs |
| 1.2 nM | 6 of 6 | KLPQSVLYEQRNSNSVA | NASTRFS | QQYHRLPLS | GP_Gibbs |
| 890 pM | 6 of 6 | KLSQSVVYESRNKNSVA | NASTRES | QQYHRLPLS | GP_Gibbs |
| 3.7 nM | 5 of 6 | KLSQFTGHLSVEKNNVA | EMETREN | QQYDRLPLS | En_Gen |
| 18 nM | 5 of 6 | KSSQSTLYESRNGNSVA | GASTRES | QQYHRLPLS | Ctrl |
| 15 nM | 6 of 6 | KSSKSVLEESNNKNSVA | WASTRES | QQYHRLPLS | Ctrl |
| 8.1 nM | 6 of 6 | KLEMDTLGQKPKQNNIA | NARVSWE | QQYYMLPLS | En_Gibbs |
| 2.1 nM | 6 of 6 | KESQSWEYESRNKNSVA | GASTRES | QQYHRLPLS | GP_HC |
| 1.5 nM | 6 of 6 | KLMQSALLESRNVNNVA | QASQREL | QDYHRLPLS | GP_Gibbs |
| 12 nM | 6 of 6 | KLSMSYRYESMNKNSIA | ELVTRMS | QQYHRLPLS | En_HC |
| 4.1 nM | 6 of 6 | KLSQSVLYESRNKNSVA | GASTRES | QDYHRLPLS | GP_Gen |
| 2.1 µM | 1 of 6 | KLPQSTMQNSVSKNSVA | ELSTRGS | QQYHRLPLS | En_HC |
| 320 nM | 5 of 6 | NLSIQTQHQNMDANAVA | QTEIREV | QQYAQLPLA | En_Gibbs |
| 480 pM | 6 of 6 | KLSQSVLYESRNKNSVA | NASTRCS | QQYHRLPLS | GP_Gen |
| 18 nM | 6 of 6 | MMSMGYLGGMRAKNNVA | QEETRES | QQYHRLPFI | En_HC |
| 69 nM | 6 of 6 | KMIQHDLYESRNKNSVA | WASTRES | QQYHRLPLS | Ctrl |
| 630 nM | 2 of 6 | KSSQSVLRETRNKNSVA | WASTRES | QQYHRLPLS | Ctrl |
| 1.8 nM | 6 of 6 | KSSISYLYESRNFNSVA | EASTREE | QQYHRLPLS | GP_HC |
| 1.4 nM | 6 of 6 | KLAQSVGMTSHHINSVA | QSTTREE | QQYNRLPLS | En_HC |
| 1.1 nM | 6 of 6 | KYSQLVGMESRNMNSVA | NASTREE | QQYHRLPLS | GP_Gibbs |
| 49 nM | 6 of 6 | KQSQSVLVESRNKNSVA | MASTRES | QQYHRLPLS | GP_HC |
| 18 nM | 6 of 6 | MVGQGLMGESRAKNSIA | QASLRFD | QQYHRLPFI | En_HC |
| 230 nM | 1 of 6 | KSSQSWLYESRNKNSVA | WASTRED | QQYHTLPLS | Ctrl |
| 970 pM | 6 of 6 | KLSMSVQYEARNKNSVA | EASTRED | QQYHRLPLS | GP_Gibbs |
| 550 pM | 6 of 6 | KLPQSVLYESRNKNAVA | AASTRES | QQYHRLPLS | GP_Gen |
| not detected | 0 of 6 | HSSPSVEYESRNKNSVA | NASDRES | QQYHRLPLS | GP_HC |
| 69 nM | 6 of 6 | KLIQSVAMSSRVKDSIA | DNSTRES | QQYHRLPLS | En_HC |
| 2.2 nM | 6 of 6 | KWSQLVLGESRNKNSVA | NASQREE | QQYHRLPLS | GP_Gibbs |
| not detected | 0 of 6 | ILNLSPMGHQIHMDAIA | QEAIRNQ | QQYARLPLS | En_Gibbs |
| 1.8 nM | 6 of 6 | KFSDSVLLESRTKNNVA | NASTRES | QQYHRLPLS | GP_HC |
| 4.8 nM | 6 of 6 | QLSMITGHVSMTKNNVA | EMETREE | QQYDRLPLS | En_Gen |
| 3.0 nM | 6 of 6 | KLSMTTEMEHKNRNSVA | ELVTRMA | QQYNRLPLS | En_Gen |
| 73 nM | 6 of 6 | KSSQSMLYESYEKNSVA | WASTRES | QQYHRLPLS | Ctrl |
| 45 nM | 3 of 6 | KIHCRELWYQGQWNNIA | EAAKLVE | QQYALLPLA | En_Gibbs |
| 4.4 nM | 6 of 6 | FMGGTKEMQSNEIGNIA | DMNERFA | QQYFQLPLS | En_Gibbs |
| 5.9 nM | 6 of 6 | KLRQSTLYESRNQNSVA | WASTRLS | QQYHRLPLS | GP_HC |
| 4.7 nM | 6 of 6 | KSSQSVLYEGRNKNSVA | NASEREV | QQYHRLPES | Ctrl |
| 12 nM | 6 of 6 | KISGLSNHESSVHNNVA | ENVTRVQ | QQYFRLPLA | En_Gen |
| not detected | 0 of 6 | KSSQSVLYEQLNKNSVA | TASIRES | TQYHRLPLS | Ctrl |
| 900 pM | 6 of 6 | KLSQSDGYESRNKNSVA | HASTRES | QQYHRLPLS | GP_Gen |
| 15 nM | 6 of 6 | ALAQGIYEPVRKSNNIA | EASHVGD | QQYERLPLE | En_Gibbs |
| 26 nM | 6 of 6 | MSSQSVLYESRNKNSNA | DASTRLS | QQYHRLPLS | Ctrl |
| 21 nM | 6 of 6 | QLYEMNYELSGKTHSVA | DNSTRGD | QQYFRLPLE | En_Gen |
| 58 nM | 6 of 6 | KSSQSVAYQSRNNNSVA | WASTRMS | QQYHRLPLS | Ctrl |
| 20 nM | 6 of 6 | KIGHGLTTEQRNRNSVA | QTETRVS | QHYHRLPLS | En_HC |
| 5.5 µM | 1 of 6 | KLSLFYRVETRAKNSVA | DNSTRES | QDYDRLPLS | En_HC |
| not detected | 0 of 6 | KIAATVLYESGLANSVA | QNSTRES | QQYHRLPLS | En_HC |
| 13 nM | 6 of 6 | SVFMELAEEKNSTRNIA | DASMRLA | QQYVRLPLG | En_Gibbs |
| 1.2 nM | 6 of 6 | KLSQSMLYESRNKNSVA | HASTRMS | QQYHRLPLS | GP_Gen |
| 4.5 nM | 6 of 6 | KLWMSVLGESRNQNAVA | SASTREL | QQYHRLPLS | GP_Gibbs |
| 1.8 nM | 6 of 6 | KSSQSVKFESRNKNSVA | DASTREQ | QQYHRLPLS | GP_HC |
| 25 nM | 6 of 6 | TISQSTYWEERNKNSVA | QTSTREE | QDYDRLPLS | En_HC |
| not detected | 0 of 6 | QSSQSQLYESRNKNSVA | WASTRET | QSYHRLPLS | Ctrl |
| 2.9 nM | 6 of 6 | KIGATLNTLSHKQNNVA | DLVTREN | QQYYRLPLS | En_Gen |
| 750 pM | 6 of 6 | KLPQSDLYESRNKNSVA | SASQRES | QQYHRLPLS | GP_Gen |
| 1.3 nM | 6 of 6 | KLSQSYLYESRNKNSVA | NASTRCS | QQYHRLPLS | GP_Gen |
| 890 pM | 6 of 6 | KLSQSNGYESRNKNSVA | NASQRES | QQYHRLPLS | GP_Gen |
| 660 pM | 6 of 6 | KSSQSKLYESMNKNSVA | NASTREM | QQYHRLPLS | Ctrl |
| 1.7 nM | 6 of 6 | KLQQSWLYESRNKNSVA | GGSTRES | QQYHRLPLS | GP_HC |

The 9 strongest on average among those seen in every replicate, once more:

| CDR-L1 | CDR-L2 | CDR-L3 | group | Kd | seen in |
|---|---|---|---|---|---|
| KLSQSVLYESRNKNSVA | NASTRCS | QQYHRLPLS | GP_Gen | 480 pM | 6 of 6 |
| KLPQSVLYESRNKNAVA | AASTRES | QQYHRLPLS | GP_Gen | 550 pM | 6 of 6 |
| KQSQSVLYESVNKNSVA | DASQRES | QQYHRLPLS | GP_HC | 570 pM | 6 of 6 |
| KSSQSKLYESMNKNSVA | NASTREM | QQYHRLPLS | Ctrl | 660 pM | 6 of 6 |
| KLPQSDLYESRNKNSVA | SASQRES | QQYHRLPLS | GP_Gen | 750 pM | 6 of 6 |
| KLSQSVVYESRNKNSVA | NASTRES | QQYHRLPLS | GP_Gibbs | 890 pM | 6 of 6 |
| KLSQSNGYESRNKNSVA | NASQRES | QQYHRLPLS | GP_Gen | 890 pM | 6 of 6 |
| KLSQSDGYESRNKNSVA | HASTRES | QQYHRLPLS | GP_Gen | 900 pM | 6 of 6 |
| KLSMSVQYEARNKNSVA | EASTRED | QQYHRLPLS | GP_Gibbs | 970 pM | 6 of 6 |

Reference: Li et al. 2023, doi:10.1038/s41467-023-39022-2. File: FLAb, binding data.